The values that follow come from patent US8993599B2, “Pharmaceutical formulations useful for inhibiting acid secretion and methods for making and using them” (Santarus, Inc., priority 2003, dated 2015).

The conditions of the data set: human, in vivo, 20 mg.

The Tmax is the time at which the peak concentration occurs. `COc1ccc2[nH]c([S+]([O-])Cc3ncc(C)c(OC)c3C)nc2c1` (stereo not shown) [Prilosec Delayed-Release Capsules 20 mg]: the Tmax was found to be 1.50 h.
